Data reported in PMC6941952, “A homogeneous bioluminescent immunoassay to probe cellular signaling pathway regulation” (Communications Biology, 2020).

Assays:
STAT3 Phospho-Tyr705 = assay: NanoBiT pSTAT3 cell-based immunoassay in A431 cells; set-up: species or system human; conditions: for P-STAT3, Average: background subtracted, average of replicates
Description: Prior to NanoBiT Cell-Based Immunoassay, 50,000 cells were seeded in 160 µl of complete growth media per well of a 96-well plate and incubated overnight. […] If necessary, the cell culture media were replaced with serum-free media after the cells were stably adherent on the plate and incubated overnight. To treat cells with activators or inhibitors, medium was changed to 30 µl of medium containing inhibitors. If activation of a specific pathway is needed, the cells were stimulated with 10 µl of medium containing activators. To lyse the cells, 10 µl of lysis buffer containing 0.1% digitonin diluted in 1X immunoassay buffer with protease and phosphatase inhibitors was added and the plates were mixed vigorously for 20 min. Then, 50 µl of an antibody mix containing two primary antibodies against the target protein and NanoBiT detecting antibodies (0.3 µl each per well), diluted in 1X immunoassay buffer was added to the lysates. The plates were incubated at 23 °C for 90 min, followed by the addition of 25 µl of Nano-Glo® reagent consisting of Nano-Glo® Luciferase Assay Substrate mixed with 1X immunoassay buffer. Luminescence was measured using a plate-reading luminometer.
Single dose or dose response inhibitor treatments were performed prior to activation of the pathways as follows. For IκBα, the cells were treated in 30 µl medium with IKK16 or MG132 for 60 min before the addition of 10 µl of DMEM containing appropriate concentration of TNFα. To measure phosphorylation of AKT or STAT3, the corresponding NanoBiT immunoassays were developed with MCF-7 or A431 cells, respectively, according the same scheme used to develop the IκBα assay using the primary antibodies for AKT and STAT3 described in the reagents section. […] Treatment with LY294002 was performed in 30 µl medium and cells were incubated for 60 min before the addition of 1 µM Insulin. To measure STAT3 phosphorylation, A431 cells were incubated overnight in DMEM medium without serum. […] After addition of the stimulators, the cells were incubated for additional times as follows. IκBα phosphorylation and degradation analyses required both time courses and single time points as described in figures. […] The NanoBiT immunoassay protocol was followed as described above.
(§1) All 96-well assay plates were read using a GloMax® 96 Microplate Luminometer from Promega. The instrument was set to 0.5 s integration time. In order to obtain net change of signal, the reagent background values (signal from the well containing all reagent except primary antibodies) were subtracted from the sample values. To plot and analyze the data, Microsoft Excel and GraphPad Prism® Software were used. IC50 values were determined by using a nonlinear regression fit to a sigmoidal dose response (variable slope).

total STAT3 = assay: NanoBiT cell-based immunoassay, total STAT3 in A431 cells; set-up: species or system human; conditions: for Total STAT3, Average: background subtracted, average of replicates; for Total Stat3, Raw data / Total Stat3, Subtract reagent background: single replicates
Description: Prior to NanoBiT Cell-Based Immunoassay, 50,000 cells were seeded in 160 µl of complete growth media per well of a 96-well plate and incubated overnight. The cells were checked under microscope and it was determined that 50,000 cells per well in 96-well plate is under 90% confluency for all cells tested. If necessary, the cell culture media were replaced with serum-free media after the cells were stably adherent on the plate and incubated overnight. To treat cells with activators or inhibitors, medium was changed to 30 µl of medium containing inhibitors. If activation of a specific pathway is needed, the cells were stimulated with 10 µl of medium containing activators. To lyse the cells, 10 µl of lysis buffer containing 0.1% digitonin diluted in 1X immunoassay buffer with protease and phosphatase inhibitors was added and the plates were mixed vigorously for 20 min. Then, 50 µl of an antibody mix containing two primary antibodies against the target protein and NanoBiT detecting antibodies (0.3 µl each per well), diluted in 1X immunoassay buffer was added to the lysates. The plates were incubated at 23 °C for 90 min, followed by the addition of 25 µl of Nano-Glo® reagent consisting of Nano-Glo® Luciferase Assay Substrate mixed with 1X immunoassay buffer. Luminescence was measured using a plate-reading luminometer.
Single dose or dose response inhibitor treatments were performed prior to activation of the pathways as follows. For IκBα, the cells were treated in 30 µl medium with IKK16 or MG132 for 60 min before the addition of 10 µl of DMEM containing appropriate concentration of TNFα. To measure phosphorylation of AKT or STAT3, the corresponding NanoBiT immunoassays were developed with MCF-7 or A431 cells, respectively, according the same scheme used to develop the IκBα assay using the primary antibodies for AKT and STAT3 described in the reagents section. For the AKT assay, MCF-7 cells were incubated overnight in phenol-red free DMEM medium (Gibco #21063-029) without serum. Treatment with LY294002 was performed in 30 µl medium and cells were incubated for 60 min before the addition of 1 µM Insulin. To measure STAT3 phosphorylation, A431 cells were incubated overnight in DMEM medium without serum. […] After addition of the stimulators, the cells were incubated for additional times as follows. IκBα phosphorylation and degradation analyses required both time courses and single time points as described in figures. For AKT and STAT3, cells were treated with Insulin or IL-6 for 10 min and 30 min, respectively. The NanoBiT immunoassay protocol was followed as described above.
as §1

[1] = IL-6 +Ruxolitinib, single replicates
[2] = inhibitor 0.0190735 nM, IL-6 10 ng/ml
[3] = inhibitor 0.038147 nM, IL-6 10 ng/ml
[4] = inhibitor 0.0762939 nM, IL-6 10 ng/ml
[5] = inhibitor 0.152588 nM, IL-6 10 ng/ml
[6] = inhibitor 0.305176 nM, IL-6 10 ng/ml
[7] = inhibitor 0.610352 nM, IL-6 10 ng/ml
[8] = inhibitor 1.2207 nM, IL-6 10 ng/ml
[9] = inhibitor 2.44141 nM, IL-6 10 ng/ml
[10] = inhibitor 4.88281 nM, IL-6 10 ng/ml
[11] = inhibitor 9.76562 nM, IL-6 10 ng/ml
[12] = inhibitor 19.5312 nM, IL-6 10 ng/ml
[13] = inhibitor 39.0625 nM, IL-6 10 ng/ml
[14] = inhibitor 78.125 nM, IL-6 10 ng/ml
[15] = inhibitor 156.25 nM, IL-6 10 ng/ml
[16] = inhibitor 312.5 nM, IL-6 10 ng/ml
[17] = inhibitor 625 nM, IL-6 10 ng/ml
[18] = inhibitor 2500 nM, IL-6 10 ng/ml
[19] = inhibitor 5000 nM, IL-6 10 ng/ml
[20] = substance alone, single replicates

`N#CC[C@H](C1CCCC1)n1cc(-c2ncnc3[nH]ccc23)cn1` [Ruxolitinib] was tested, and the “P-STAT3, Average” value (STAT3 Phospho-Tyr705; IL-6 +Ruxolitinib) was 12717, the “P-STAT3 Raw data” value (STAT3 Phospho-Tyr705; [1]) was 116100 and 116600 and 113500 and the “P-STAT3 Subtract reagent background” value (STAT3 Phospho-Tyr705; [1]) was 13417 and 13917 and 10817. The “P-STAT3 Raw data” value (STAT3 Phospho-Tyr705; [2]) was 257300 and 246500 and 233700, the “P-STAT3 Subtract reagent background” value (STAT3 Phospho-Tyr705; [2]) was 156000 and 145200 and 132400 and the “P-STAT3 Raw data” value (STAT3 Phospho-Tyr705; [3]) was 256100 and 261500 and 231400. The “P-STAT3 Subtract reagent background” value (STAT3 Phospho-Tyr705; [3]) was 154650 and 160050 and 129950, the “P-STAT3 Raw data” value (STAT3 Phospho-Tyr705; [4]) was 255500 and 250300 and 235000 and the “P-STAT3 Subtract reagent background” value (STAT3 Phospho-Tyr705; [4]) was 155910 and 150710 and 135410. The “P-STAT3 Raw data” value (STAT3 Phospho-Tyr705; [5]) was 255700 and 280000 and 255200, the “P-STAT3 Subtract reagent background” value (STAT3 Phospho-Tyr705; [5]) was 155315 and 179615 and 154815 and the “P-STAT3 Raw data” value (STAT3 Phospho-Tyr705; [6]) was 258100 and 254400 and 250000. The “P-STAT3 Subtract reagent background” value (STAT3 Phospho-Tyr705; [6]) was 159295 and 155595 and 151195, the “P-STAT3 Raw data” value (STAT3 Phospho-Tyr705; [7]) was 244000 and 241000 and 250600 and the “P-STAT3 Subtract reagent background” value (STAT3 Phospho-Tyr705; [7]) was 146610 and 143610 and 153210. The “P-STAT3 Raw data” value (STAT3 Phospho-Tyr705; [8]) was 257700 and 257900 and 230400, the “P-STAT3 Subtract reagent background” value (STAT3 Phospho-Tyr705; [8]) was 157845 and 158045 and 130545 and the “P-STAT3 Raw data” value (STAT3 Phospho-Tyr705; [9]) was 266600 and 245900 and 218600. The “P-STAT3 Subtract reagent background” value (STAT3 Phospho-Tyr705; [9]) was 169855 and 149155 and 121855, the “P-STAT3 Raw data” value (STAT3 Phospho-Tyr705; [10]) was 225900 and 226900 and 235900 and the “P-STAT3 Subtract reagent background” value (STAT3 Phospho-Tyr705; [10]) was 131715 and 132715 and 141715. The “P-STAT3 Raw data” value (STAT3 Phospho-Tyr705; [11]) was 177600 and 230100 and 210700, the “P-STAT3 Subtract reagent background” value (STAT3 Phospho-Tyr705; [11]) was 85335 and 137835 and 118435 and the “P-STAT3 Raw data” value (STAT3 Phospho-Tyr705; [12]) was 217900 and 227500 and 240800. The “P-STAT3 Subtract reagent background” value (STAT3 Phospho-Tyr705; [12]) was 139500 and 116600 and 126200, the “P-STAT3 Raw data” value (STAT3 Phospho-Tyr705; [13]) was 207600 and 195600 and 193900 and the “P-STAT3 Subtract reagent background” value (STAT3 Phospho-Tyr705; [13]) was 92450 and 106150 and 94150. For the same compound, the “P-STAT3 Raw data” value (STAT3 Phospho-Tyr705; [14]) was 163400 and 161700, the “P-STAT3 Subtract reagent background” value (STAT3 Phospho-Tyr705; [14]) was 62110 and 63810 and the “P-STAT3 Raw data” value (STAT3 Phospho-Tyr705; [15]) was 136900 and 139600 and 147700. The “P-STAT3 Subtract reagent background” value (STAT3 Phospho-Tyr705; [15]) was 47315 and 36515 and 39215, the “P-STAT3 Raw data” value (STAT3 Phospho-Tyr705; [16]) was 126400 and 125700 and 124300 and the “P-STAT3 Subtract reagent background” value (STAT3 Phospho-Tyr705; [16]) was 25495 and 27595 and 26895. For the same compound, the “P-STAT3 Raw data” value (STAT3 Phospho-Tyr705; [17]) was 120800 and 122000 and 128400, the “P-STAT3 Subtract reagent background” value (STAT3 Phospho-Tyr705; [17]) was 31010 and 23410 and 24610 and the “P-STAT3 Raw data” value (STAT3 Phospho-Tyr705; [18]) was 117400 and 121900 and 116400. The “P-STAT3 Subtract reagent background” value (STAT3 Phospho-Tyr705; [18]) was 19655 and 20655 and 25155, the “P-STAT3 Raw data” value (STAT3 Phospho-Tyr705; [19]) was 120000 and 115000 and the “P-STAT3 Subtract reagent background” value (STAT3 Phospho-Tyr705; [19]) was 20815 and 25815. The “P-STAT3 Raw data” value (STAT3 Phospho-Tyr705; inhibitor 10000 nM, IL-6 10 ng/ml) was 106300 and 118200 and 101900, the “P-STAT3, Average” value (STAT3 Phospho-Tyr705; substance alone) was 9717 and the “P-STAT3 Raw data” value (STAT3 Phospho-Tyr705; [20]) was 114100 and 114700 and 108400. The “P-STAT3 Subtract reagent background” value (STAT3 Phospho-Tyr705; [20]) was 11417 and 12017 and 5717, the “Total STAT3, Average” value (total STAT3; IL-6 +Ruxolitinib) was 1624317 and the “Total Stat3, Raw data” value (total STAT3; IL-6 +Ruxolitinib) was 1435000 and 1958000 and 1788000. For the same compound, the “Total Stat3, Subtract reagent background” value (total STAT3; IL-6 +Ruxolitinib) was 1855317 and 1685317 and 1332317, the “Total STAT3, Average” value (total STAT3; substance alone) was 1546650 and the “Total Stat3, Raw data” value (total STAT3; substance alone) was 1364000 and 1867000 and 1717000. The “Total Stat3, Subtract reagent background” value (total STAT3; substance alone) was 1764317 and 1614317 and 1261317.
In the case of IL-6, the “Total Stat3, Raw data” value (total STAT3; substance alone) is reported as 1361000 and the “Total Stat3, Subtract reagent background” value (total STAT3; substance alone) is reported as 1258317.

Values joined by “and” are separate entries in the source; they are usually repeats but may differ in a detail not shown here. Identical values can stand only once.
